According to ChEMBL document CHEMBL1955733, “Optimization of 5-pyridazin-3-one phenoxypropylamines as potent, selective histamine H₃ receptor antagonists with potent cognition enhancing activity” (J Med Chem, 2012):

Legend:
[1] = target: Histamine H3 receptor (Rattus norvegicus) (UniProt Q9QYN8); experiment: Antagonist activity at rat recombinant 5HT3 receptor assessed as inhibition of RAMH-induced [35S]GTPgammaS binding; assay type: functional
[2] = species: Homo sapiens; experiment: Selectivity ratio of Ki for human histamine H1 receptor to Ki for human histamine H3 receptor
[3] = target: Histamine H3 receptor (Homo sapiens, UniProt Q9Y5N1); experiment: Antagonist activity at human recombinant 5HT3 receptor assessed as inhibition of RAMH-induced [35S]GTPgammaS binding; assay type: functional
[4] = species: Homo sapiens; experiment: Selectivity ratio of Ki for human histamine H2 receptor to Ki for human histamine H3 receptor
[5] = species: Homo sapiens; experiment: Selectivity ratio of Ki for human histamine H4 receptor to Ki for human histamine H3 receptor

C[C@@H]1CCCN1CCCOc1ccc(-c2cnn(-c3ccccn3)c(=O)c2)cc1
Kb [1]: 0.3 nM | Selectivity ratio [2]: > 1000 | Kb [3]: 0.3 nM | Selectivity ratio [4]: > 1000 | Selectivity ratio [5]: > 1000
